2 compounds from patent publication US10752581B2, “4-((2-hydroxy-3-methoxybenzyl)amino)benzenesulfonamide derivatives as potent and selective inhibitors of 12-lipoxygenase” (Eastern Virginia Medical School, priority 2013, dated 2020) can be followed below.

By UniProt entry, the sequences of proteins in these tests, tags left out. Where a name states a change or a piece, a line headed by the entry shows the natural chain unless it says otherwise.
UniProt P18054: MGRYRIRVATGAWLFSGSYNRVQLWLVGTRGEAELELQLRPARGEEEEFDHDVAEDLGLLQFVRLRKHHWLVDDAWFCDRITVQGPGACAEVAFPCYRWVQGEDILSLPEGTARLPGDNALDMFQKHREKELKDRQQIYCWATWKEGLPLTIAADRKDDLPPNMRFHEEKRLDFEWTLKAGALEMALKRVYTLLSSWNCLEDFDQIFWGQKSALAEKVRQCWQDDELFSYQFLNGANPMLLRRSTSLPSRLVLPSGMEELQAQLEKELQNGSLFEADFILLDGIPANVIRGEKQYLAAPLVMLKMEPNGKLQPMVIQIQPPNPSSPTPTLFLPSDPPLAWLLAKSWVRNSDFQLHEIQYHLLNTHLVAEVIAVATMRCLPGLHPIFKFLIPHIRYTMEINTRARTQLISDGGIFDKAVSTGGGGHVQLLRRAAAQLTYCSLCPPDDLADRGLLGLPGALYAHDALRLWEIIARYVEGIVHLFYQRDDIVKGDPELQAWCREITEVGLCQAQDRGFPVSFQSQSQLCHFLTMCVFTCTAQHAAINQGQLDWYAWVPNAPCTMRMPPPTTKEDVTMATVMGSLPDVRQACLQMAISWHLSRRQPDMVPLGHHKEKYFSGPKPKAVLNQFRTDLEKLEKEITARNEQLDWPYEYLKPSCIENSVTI

The target of the assay is human platelet 12-lipoxygenase (12-LOX) (Homo sapiens (Human), UniProt P18054). To be noted: read-out: 12-LOX IC50; Table 4.

Turning to `COc1cccc(CNc2ccc(S(=O)(=O)Nc3nccs3)cc2)c1O` [Compound 1, 4-(2-hydroxy-3-methoxybenzylamino)-N-(thiazol-2-yl)benzenesulfonamide], the IC50 amounted to 5100 nM. With `COc1cccc(CNc2ccc(S(=O)(=O)Nc3nc4ccccc4o3)cc2)c1O` [Compound 36, N-(benzo[d]oxazol-2-yl)-4-((2-hydroxy-3-methoxybenzyl)amino)benzenesulfonamide] the figure was 790 nM.

The IC50 is the midpoint of a concentration-inhibition curve.
